Test results taken from paper PMC10216605, “Developing In Vitro Models to Define the Role of Direct Mitochondrial Toxicity in Frequently Reported Drug-Induced Rhabdomyolysis” (Biomedicines, 2023).

Tests used:
[1] = FAERS analysis of reported rhabdomyolysis cases per suspect drug; conditions: for (%) of total rhabdomyolysis cases / Number of Rhabdomyolysis Cases / Number of Rhabdomyolysis Cases (n = 6583): FAERS 2004 to 31 March 2020; for (%) of total rhabdomyolysis cases: of 27,140 cases; for Number of Rhabdomyolysis Cases: total 27,140 rhabdomyolysis cases, some cases with more than one suspected drug; for (%) of monotherapy rhabdomyolysis cases: of 6583 cases; for Number of Rhabdomyolysis Cases (n = 6583): suspected drug reported as a single drug used (monotherapy)
[2] = tested on: L6 cells; experiment: Acute metabolic switch assay (cellular ATP content, glucose vs galactose media) in L6 differentiated myotubes
Description: They were then seeded into collagen-coated wells (50 µg/mL in 0.02 M of acetic acid) at a density of 16,000 cells/100 μL/well (96 well plates) and 10,000 cells/100 μL/well (XF 96-well cell culture microplates). The cells were next incubated for 24 h in complete growth medium to promote adherence, after which the growth medium was removed and the cells washed twice with 1× HBSS. The L6 myoblasts were then cultured in differentiation medium consisting of high-glucose DMEM (25 mM) supplemented with L-glutamine (4 mM), sodium pyruvate (1 mM), HEPES (5 mM), and horse serum (2% v/v). Fresh differentiation medium was provided every 48 h for 7 days.
On the day of the assay, the media on the differentiated myotubes were replaced with either serum-free high-glucose (DMEM, 25 mM of glucose, 4 mM of L-glutamine, 1 mM of sodium pyruvate, and 5 mM of HEPES) or serum-free galactose (DMEM, 10 mM of galactose, 6 mM of L-glutamine, 1 mM of sodium pyruvate, and 5 mM of HEPES) media (100 µL) for 2 h (37 °C, 5% CO2). […]
The cellular ATP content was measured using a bioluminescence assay kit, alongside the concomitant measurement of protein using a bicinchoninic acid (BCA) assay kit to normalise ATP data to the total protein. […] The ATPase luminescence signal was measured immediately using a plate reader (Varioskan, Thermo Scientific, Schaumburg, IL USA).

| Structure (SMILES) | (%) of total rhabdomyolysis cases [1] [%] | Number of Rhabdomyolysis Cases [1] | (%) of monotherapy rhabdomyolysis cases [1] [%] | Number of Rhabdomyolysis Cases (n = 6583) [1] | IC50-ATPglu/IC50-ATPgal [2] | Mitotoxicity classification in acute metabolic switch assay [2] | ROR (reported odds ratio) ([1]; rhabdomyolysis with suspected drug vs all other drugs in FAERS) |
| --- | --- | --- | --- | --- | --- | --- | --- |
| Cc1cc2c(s1)Nc1ccccc1N=C2N1CCN(C)CC1 [Olanzapine] | 2.4 | 648 | 3.9 | 258 |  |  |  |
| CC(C)C[C@H](CN)CC(=O)O [Pregabalin] |  |  |  |  | >2.6 (0.0049) | containing a mitochondrial liability | 0.2 |
| Cc1nc2n(c(=O)c1CCN1CCC(c3noc4cc(F)ccc34)CC1)CCCC2 [Risperidone] | 2.4 | 654 | 1.8 | 121 |  |  |  |
